Assay results as given in patent US20190055563.

Biological target: T1, recombinant human GST-RAD51, Q06609
T1 chain: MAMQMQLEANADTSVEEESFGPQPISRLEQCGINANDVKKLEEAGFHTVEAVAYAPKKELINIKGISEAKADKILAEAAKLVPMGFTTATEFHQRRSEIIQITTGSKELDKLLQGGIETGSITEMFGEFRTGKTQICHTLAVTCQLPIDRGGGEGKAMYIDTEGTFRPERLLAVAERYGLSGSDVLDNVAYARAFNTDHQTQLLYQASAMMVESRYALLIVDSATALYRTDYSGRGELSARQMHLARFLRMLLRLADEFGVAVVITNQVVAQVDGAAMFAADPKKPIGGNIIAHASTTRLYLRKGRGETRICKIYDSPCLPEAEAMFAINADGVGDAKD

B1: ΔPol2 ΔRAD51 (protein)
chain: MNLLRRSGKRRRSESGSDSFSGSGGDSSASPQFLSGSVLSPPPGLGRCLKAAAAGECKPTVPDYERDKLLLANWGLPKAVLEKYHSFGVKKMFEWQAECLLLGQVLEGKNLVYSAPTSAGKTLVAELLILKRVLEMRKKALFILPFVSVAKEKKYYLQSLFQEVGIKVDGYMGSTSPSRHFSSLDIAVCTIERANGLINRLIEENKMDLLGMVVVDELHMLGDSHRGYLLELLLTKICYITRKSASCQADLASSLSNAVQIVGMSATLPNLELVASWLNAELYHTDFRPVPLLESVKVGNSIYDSSMKLVREFEPMLQVKGDEDHVVSLCYETICDNHSVLLFCPSKKWCEKLADIIAREFYNLHHQAEGLVKPSECPPVILEQKELLEVMDQLRRLPSGLDSVLQKTVPWGVAFHHAGLTFEERDIIEGAFRQGLIRVLAATSTLSSGVNLPARRVIIRTPIFGGRPLDILTYKQMVGRAGRKGVDTVGESILICKNSEKSKGIALLQGSLKPVRSCLQRREGEEVTGSMIRAILEIIVGGVASTSQDMHTYAACTFLAASMKEGKQGIQRNQESVQLGAIEACVMWLLENEFIQSTEASDGTEGKVYHPTHLGSATLSSSLSPADTLDIFADLQRAMKGFVLENDLHILYLVTPMFEDWTTIDWYRFFCLWEKLPTSMKRVAELVGVEEGFLARCVKGKVVARTERQHRQMAIHKRFFTSLVLLDLISEVPLREINQKYGCNRGQIQSLQQSAAVYAGMITVFSNRLGWHNMELLLSQFQKRLTFGIQRELCDLVRVSLLNAQRARVLYASGFHTVADLARANIVEVEVILKNAVPFKSARKAVGVQWNPCALLHSSTCSLTHSESEVKEHTFISQTKSSYKKLTSKNKSNTIFSDSYIKHSPNIVQDLNKSREHTSSFNCNFQNGNQEHQTCSIFRARKRASLDINKEK
Q: How did the RAD51-ssDNA nucleofilament assembly turn out when B1 was run?
A: Its RAD51-ssDNA nucleofilament assembly is “RAD51-ssDNA assembly was reduced by wild-type ΔPol2 but not by A-dead or ΔRAD51”.
